Permeability data for macrocyclic peptides

Source: CycPeptMPDB (Li et al. 2023), which took these values from Kelly et al. 2021, doi:10.1021/jacs.0c06115.

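Lipid, pH, incubation time, direction and concentration are not recorded in the data file. Other peptides of the study may be missing here. Entries at the database's floor value (log10 P of -10) are not listed.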

PAMPA is the parallel artificial membrane permeability assay, which has no cells and reads passive diffusion.
MDCK values are permeabilities across Madin-Darby canine kidney cell monolayers.
Permeability is in 10^-6 cm/s, converted from the database's log10 values; higher is more permeable.
Cells with "–" have no entry in this list.

| structure (SMILES) | PAMPA (10^-6 cm/s) | MDCK (10^-6 cm/s) |
|---|---|---|
| CC(=O)N1CCC[C@H]1C(=O)N(C)[C@@H](CC(C)C)C(=O)N[C@@H]1C(=O)N[C@H](CC(C)C)C(=O)N(C)[C@@H](CC(C)C)C(=O)N[C@H](CC(C)C)C(=O)N(C)[C@H](C)C(=O)N[C@@H](CC(C)C)C(=O)N2CCC[C@@H]2C(=O)O[C@@H]1C | 9.3 | – |
| CC(=O)N1CCC[C@H]1C(=O)N[C@@H]1C(=O)N(C)[C@H](CC(C)C)C(=O)N(C)[C@H](CC(C)C)C(=O)N(C)[C@@H](CC(C)C)C(=O)N(C)[C@H](CC(C)C)C(=O)N(C)[C@@H](C)C(=O)N[C@@H](CC(C)C)C(=O)N2CCC[C@@H]2C(=O)O[C@@H]1C | 10 | – |
| CC(=O)N1CCC[C@@H]1C(=O)N(C)[C@H](CC(C)C)C(=O)N[C@@H]1C(=O)N(C)[C@H](CC(C)C)C(=O)N[C@H](CC(C)C)C(=O)N(C)[C@@H](CC(C)C)C(=O)N(C)[C@@H](C)C(=O)N[C@@H](CC(C)C)C(=O)N2CCC[C@H]2C(=O)O[C@@H]1C | 2.6 | – |
| CC(=O)N1CCC[C@H]1C(=O)N(C)[C@H](CC(C)C)C(=O)N[C@@H]1C(=O)N[C@H](CC(C)C)C(=O)N[C@@H](CC(C)C)C(=O)N[C@@H](CC(C)C)C(=O)N(C)[C@H](C)C(=O)N[C@H](CC(C)C)C(=O)N2CCC[C@@H]2C(=O)O[C@@H]1C | 0.62 | – |
| CC(=O)N1CCC[C@H]1C(=O)N(C)[C@H](CC(C)C)C(=O)N[C@@H]1C(=O)N(C)[C@H](CC(C)C)C(=O)N(C)[C@H](CC(C)C)C(=O)N(C)[C@@H](CC(C)C)C(=O)N(C)[C@@H](C)C(=O)N[C@H](CC(C)C)C(=O)N2CCC[C@H]2C(=O)O[C@@H]1C | 2.3 | – |
| CC(=O)N1CCC[C@H]1C(=O)N(C)[C@H](CC(C)C)C(=O)N[C@@H]1C(=O)N(C)[C@@H](CC(C)C)C(=O)N(C)[C@@H](CC(C)C)C(=O)N[C@@H](CC(C)C)C(=O)N(C)[C@@H](C)C(=O)N[C@H](CC(C)C)C(=O)N2CCC[C@@H]2C(=O)O[C@@H]1C | 6.6 | – |
| CC(=O)N1CCC[C@@H]1C(=O)N(C)[C@@H](CC(C)C)C(=O)N[C@@H]1C(=O)N(C)[C@@H](CC(C)C)C(=O)N[C@@H](CC(C)C)C(=O)N[C@@H](CC(C)C)C(=O)N[C@@H](C)C(=O)N[C@H](CC(C)C)C(=O)N2CCC[C@H]2C(=O)O[C@@H]1C | 0.04 | – |
| CC(=O)N1CCC[C@H]1C(=O)N(C)[C@@H](CC(C)C)C(=O)N[C@@H]1C(=O)N(C)[C@H](CC(C)C)C(=O)N(C)[C@@H](CC(C)C)C(=O)N[C@H](CC(C)C)C(=O)N[C@@H](C)C(=O)N[C@H](CC(C)C)C(=O)N2CCC[C@@H]2C(=O)O[C@@H]1C | 0.4 | – |
| CC(=O)N1CCC[C@@H]1C(=O)N(C)[C@H](CC(C)C)C(=O)N[C@@H]1C(=O)N[C@H](CC(C)C)C(=O)N[C@@H](CC(C)C)C(=O)N[C@@H](CC(C)C)C(=O)N(C)[C@@H](C)C(=O)N[C@H](CC(C)C)C(=O)N2CCC[C@@H]2C(=O)O[C@@H]1C | 0.45 | – |
| CC(=O)N1CCC[C@H]1C(=O)N[C@@H]1C(=O)N(C)[C@H](CC(C)C)C(=O)N[C@H](CC(C)C)C(=O)N[C@H](CC(C)C)C(=O)N(C)[C@@H](CC(C)C)C(=O)N(C)[C@@H](C)C(=O)N[C@@H](CC(C)C)C(=O)N2CCC[C@@H]2C(=O)O[C@@H]1C | 0.63 | – |
| CC(=O)N1CCC[C@H]1C(=O)N(C)[C@@H](CC(C)C)C(=O)N[C@@H]1C(=O)N[C@H](CC(C)C)C(=O)N(C)[C@H](CC(C)C)C(=O)N(C)[C@H](CC(C)C)C(=O)N[C@@H](C)C(=O)N[C@H](CC(C)C)C(=O)N2CCC[C@H]2C(=O)O[C@@H]1C | 3.5 | – |
| CC(=O)N1CCC[C@@H]1C(=O)N(C)[C@H](CC(C)C)C(=O)N[C@@H]1C(=O)N(C)[C@@H](CC(C)C)C(=O)N[C@@H](CC(C)C)C(=O)N[C@@H](CC(C)C)C(=O)N[C@H](C)C(=O)N[C@H](CC(C)C)C(=O)N2CCC[C@H]2C(=O)O[C@@H]1C | 0.33 | – |
| CC(=O)N1CCC[C@H]1C(=O)N(C)[C@@H](CC(C)C)C(=O)N[C@@H]1C(=O)N(C)[C@@H](CC(C)C)C(=O)N(C)[C@@H](CC(C)C)C(=O)N(C)[C@H](CC(C)C)C(=O)N(C)[C@H](C)C(=O)N[C@H](CC(C)C)C(=O)N2CCC[C@@H]2C(=O)O[C@@H]1C | 2.8 | – |
| CC(=O)N1CCC[C@H]1C(=O)N[C@@H]1C(=O)N[C@H](CC(C)C)C(=O)N[C@H](CC(C)C)C(=O)N(C)[C@@H](CC(C)C)C(=O)N(C)[C@@H](CC(C)C)C(=O)N(C)[C@@H](C)C(=O)N[C@@H](CC(C)C)C(=O)N2CCC[C@@H]2C(=O)O[C@@H]1C | 2.4 | – |
| CC(=O)N1CCC[C@H]1C(=O)N[C@@H]1C(=O)N[C@H](CC(C)C)C(=O)N(C)[C@H](CC(C)C)C(=O)N(C)[C@H](CC(C)C)C(=O)N(C)[C@@H](CC(C)C)C(=O)N(C)[C@H](C)C(=O)N[C@@H](CC(C)C)C(=O)N2CCC[C@@H]2C(=O)O[C@@H]1C | 5.9 | – |
| CC(=O)N1CCC[C@@H]1C(=O)N(C)[C@H](CC(C)C)C(=O)N[C@@H]1C(=O)N(C)[C@H](CC(C)C)C(=O)N[C@H](CC(C)C)C(=O)N[C@@H](CC(C)C)C(=O)N(C)[C@@H](C)C(=O)N[C@@H](CC(C)C)C(=O)N2CCC[C@H]2C(=O)O[C@@H]1C | 0.14 | – |
| CC(=O)N1CCC[C@@H]1C(=O)N(C)[C@H](CC(C)C)C(=O)N[C@@H]1C(=O)N(C)[C@H](CC(C)C)C(=O)N(C)[C@@H](CC(C)C)C(=O)N(C)[C@@H](CC(C)C)C(=O)N[C@@H](C)C(=O)N[C@H](CC(C)C)C(=O)N2CCC[C@H]2C(=O)O[C@@H]1C | 9.8 | 7.6 |
| CC(=O)N1CCC[C@H]1C(=O)N(C)[C@H](CC(C)C)C(=O)N[C@@H]1C(=O)N(C)[C@@H](CC(C)C)C(=O)N[C@@H](CC(C)C)C(=O)N[C@@H](CC(C)C)C(=O)N[C@@H](C)C(=O)N[C@H](CC(C)C)C(=O)N2CCC[C@@H]2C(=O)O[C@@H]1C | 0.024 | – |
| CC(=O)N1CCC[C@@H]1C(=O)N(C)[C@@H](CC(C)C)C(=O)N[C@@H]1C(=O)N[C@@H](CC(C)C)C(=O)N(C)[C@H](CC(C)C)C(=O)N[C@H](CC(C)C)C(=O)N[C@@H](C)C(=O)N[C@@H](CC(C)C)C(=O)N2CCC[C@H]2C(=O)O[C@@H]1C | 0.32 | – |
| CC(=O)N1CCC[C@H]1C(=O)N(C)[C@H](CC(C)C)C(=O)N[C@@H]1C(=O)N[C@@H](CC(C)C)C(=O)N[C@H](CC(C)C)C(=O)N(C)[C@H](CC(C)C)C(=O)N[C@@H](C)C(=O)N[C@H](CC(C)C)C(=O)N2CCC[C@@H]2C(=O)O[C@@H]1C | 0.1 | – |